From article PMC12071940, “Shortened PGLYRP1 Peptides Regulate Antitumor Activity of Cytotoxic Lymphocytes via TREM-1 Receptor: From Biology to Bioinformatics” (International Journal of Molecular Sciences, 2025)

Amino acid sequences for entries named in this document (tags omitted). Residues count along the entry.
UniProt Q9NP99, 21-205 limits assumed: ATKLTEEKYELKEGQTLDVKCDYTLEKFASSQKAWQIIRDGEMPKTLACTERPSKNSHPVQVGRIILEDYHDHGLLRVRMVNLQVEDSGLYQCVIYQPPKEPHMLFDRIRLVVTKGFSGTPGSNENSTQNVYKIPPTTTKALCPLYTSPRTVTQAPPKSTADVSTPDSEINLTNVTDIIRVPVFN

Molecular target: T1, TREM-1 receptor (Homo sapiens, UniProt Q9NP99)
T1 construct: made in house
Experiment: Microscale thermophoresis binding to sTREM-1
Details: Alexa Fluor 633-labeled sTREM-1, peptide in 16 concentrations by sequential dilution, 30 min in the dark, room temperature, 24% IR laser power, at least three replicates, average ± SD, read-out: Kd (dissociation constant)
Experimental: First, we evaluated the affinity of the interaction of these peptides with the receptor in solution. The interaction between the selected peptides and the receptor was studied using microscale thermophoresis. The affinity of the studied complexes was assessed based on the change in thermodynamic signals obtained by adding various concentrations of peptides to fluorescently labeled TREM-1.
The purified sTREM-1 protein was labeled using an Alexa Fluor^TM 633 Protein Labeling Kit (Life Technologies Corporation, Eugene, OR, USA) in accordance with the manufacturer’s protocol.
The 17.0, N9, and N15 peptides (C = 200 nM for all) were incubated for 30 min in the dark at room temperature in 16 different concentrations obtained through sequential dilution, starting with the highest soluble concentration. The samples were transferred to glass capillaries (Monolith NT Capillaries) and analyzed via microscale thermophoresis using a Nano-Temperature Monolith NT 115 device (24% IR laser power). The signal quality was monitored using a NanoTemper Monolith device to detect possible autofluorescence of the ligand, aggregation, or changes in the photobleaching rate. The experiments were carried out in at least three replicates and processed using affinity analysis software (MO Control v.1.6.1, NanoTemper Technologies GmbH, München, Germany).

Row | Kd | SMILES
1 | 1.32 ± 0.2 nM | CSCC[C@H](NC(=O)[C@H](Cc1c[nH]cn1)NC(=O)[C@H](Cc1ccc(O)cc1)NC(=O)[C@H](Cc1c[nH]cn1)NC(=O)[C@H](CCC(N)=O)NC(=O)[C@@H](NC(=O)[C@H](CC(N)=O)NC(=O)[C@@H](N)CCCNC(=N)N)C(C)C)C(=O)N[C@@H](CCCCN)C(=O)N[C@H](C(=O)O)[C@@H](C)O [17.0]
2 | 9.66 ± 0.5 nM | C[C@H](NC(=O)[C@@H]1CCCN1)C(=O)N[C@@H](CO)C(=O)N[C@@H](CS)C(=O)N[C@@H](CCC(N)=O)C(=O)N[C@@H](CCC(N)=O)C(=O)N[C@@H](CCC(N)=O)C(=O)N[C@@H](C)C(=O)N[C@@H](CCCNC(=N)N)C(=O)O [N9]
3 | 7.43 ± 0.4 nM | CC(C)[C@H](NC(=O)[C@H](Cc1ccc(O)cc1)NC(=O)[C@@H](N)CCCNC(=N)N)C(=O)N[C@H](C(=O)N[C@H](C(=O)N[C@@H](CO)C(=O)N[C@@H](Cc1c[nH]cn1)C(=O)N[C@H](C(=O)N[C@@H](C)C(=O)NCC(=O)N[C@@H](CO)C(=O)N[C@@H](CO)C(=O)N[C@@H](CS)C(=O)N[C@@H](CC(N)=O)C(=O)N[C@H](C(=O)O)[C@@H](C)O)[C@@H](C)O)C(C)C)C(C)C [N15]
